In the assay the target is SARS-CoV-2 nsp15 endoribonuclease (Severe acute respiratory syndrome coronavirus 2, UniProt P0DTD1).

Here are results for 1 compound from publication PMC8286823, “Identifying SARS-CoV-2 antiviral compounds by screening for small molecule inhibitors of nsp15 endoribonuclease” (Biochemical Journal, 2021).

As to `CC(=O)[C@]1(O)Cc2c(O)c3c(c(O)c2[C@@H](O[C@H]2C[C@H](N)[C@H](O)[C@H](C)O2)C1)C(=O)c1ccccc1C3=O` [Idarubicin], the “Z-score [High]” value is listed as -0.30 and the “Z-score [Low]” value was -0.61.
